1 substance from patent US12251427B2, “Reduced oxygen carriers and their use for the treatment of carboxyhemoglobinemia” (priority 2016, dated 2025) can be followed below.

This experiment deals with HbCO. Description: Severe CO poisoning mouse model: HbCO level by spectrometry. The experiment is classed as in vivo, mice. The note with it: Example 9. On the procedure: To establish a model for cardiovascular and mortality end points, tracheally intubated, ventilated, anesthetized mice were exposed to 30,000 ppm (3%) CO gas, with 21% oxygen and 1.5% isoflurane for 4.5 minutes. Mice were surgically instrumented with placement of jugular venous (for infusion of drug) and carotid arterial (for blood pressure and heart rate monitoring) catheters. In this model, there was 88.2% (15/17) mortality in a group infused with 300 μL of PBS post exposure, while all mice that received an infusion of 11 mM myoglobin survived (0% mortality; n=5). Survival of mice infused with myoglobin was due to the reversal in hemodynamic collapse and bradycardia induced by CO (FIG. 5).
Through the jugular venous catheter, the HbCO level was sampled using spectrometry. Immediately after 4.5 minutes of CO exposure, the HbCO level was on average 84 to 88%. […] Mouse half-life for CO is much faster than for humans. […] Survival in mice infused with reduced myoglobin resulted from a restoration of heart rate (top) and mean arterial blood pressure (bottom).
Tracheally intubated, ventilated, anesthetized mice were exposed to 30,000 ppm (3%) CO gas, with 21% oxygen and 1.5% isoflurane for 4.5 minutes. Mice were surgically instrumented with placement of jugular venous (for infusion of drug) and carotid arterial (for blood pressure and heart rate monitoring) catheters. […]

Turning to “albumin: albumin infused as control beside PBS in the severe CO poisoning model [reference compound]”, the HbCO level (five minutes after infusion) is 80% and the HbCO level (ten minutes after treatment) was found to be 75%.
